Measured values taken from ChEMBL document CHEMBL5365518, “Synthesis and Validation of the First Cell-Impermeable Hsp90α-Selective Inhibitors” (ACS Med Chem Lett, 2023).

Organism: Homo sapiens
Assay: Selectivity index, ratio of IC50 for binding affinity to Trap1 (unknown origin) to IC50 for binding affinity HSP90alpha (unknown origin)

`Cc1ccc(Sc2cc(C(=O)N3Cc4ccc(OCCN(C)C)cc4C3)ccc2O)cc1C` and `Cc1ccc(Sc2cc(C(=O)N3Cc4ccc(OCCCN(C)C)cc4C3)ccc2O)cc1C` cannot be ordered by Ratio IC50: greater than 117 for the first, greater than 196 for the second.

`Cc1ccc(Sc2cc(C(=O)N3Cc4ccc(OCC[N+](C)(C)C)cc4C3)ccc2O)cc1C.O=C([O-])C(F)(F)F` and `Cc1ccc(Sc2cc(C(=O)N3Cc4ccc(OCCC[N+](C)(C)C)cc4C3)ccc2O)cc1C.O=C([O-])C(F)(F)F` cannot be ordered by Ratio IC50: greater than 153 for the first, greater than 294 for the second.

Organism: Homo sapiens
Assay: Selectivity index, ratio of IC50 for binding affinity to Grp94 (unknown origin) to IC50 for binding affinity HSP90alpha (unknown origin)

`Cc1ccc(Sc2cc(C(=O)N3Cc4ccc(OCCN(C)C)cc4C3)ccc2O)cc1C` and `Cc1ccc(Sc2cc(C(=O)N3Cc4ccc(OCCCN(C)C)cc4C3)ccc2O)cc1C` cannot be ordered by Ratio IC50: greater than 117 for the first, greater than 196 for the second.

`Cc1ccc(Sc2cc(C(=O)N3Cc4ccc(OCC[N+](C)(C)C)cc4C3)ccc2O)cc1C.O=C([O-])C(F)(F)F` and `Cc1ccc(Sc2cc(C(=O)N3Cc4ccc(OCCC[N+](C)(C)C)cc4C3)ccc2O)cc1C.O=C([O-])C(F)(F)F` cannot be ordered by Ratio IC50: greater than 153 for the first, greater than 294 for the second.
